PubChem BioAssay AID602179 (National Center for Advancing Translational Sciences (NCATS), 2012)
Only a part is listed here, and it is no random draw. Calls of active or inactive are those of the source. Calls come from the whole dose curve; as a rule, active = well fitted inhibition curve with a large enough effect; inconclusive = small, poorly fitted or top-dose-only effect; inactive = no such curve, though single readings can be large or run the other way.

Chains of the proteins cited; added tags and fusions are not shown.
UniProt O75874, whole entry R132H: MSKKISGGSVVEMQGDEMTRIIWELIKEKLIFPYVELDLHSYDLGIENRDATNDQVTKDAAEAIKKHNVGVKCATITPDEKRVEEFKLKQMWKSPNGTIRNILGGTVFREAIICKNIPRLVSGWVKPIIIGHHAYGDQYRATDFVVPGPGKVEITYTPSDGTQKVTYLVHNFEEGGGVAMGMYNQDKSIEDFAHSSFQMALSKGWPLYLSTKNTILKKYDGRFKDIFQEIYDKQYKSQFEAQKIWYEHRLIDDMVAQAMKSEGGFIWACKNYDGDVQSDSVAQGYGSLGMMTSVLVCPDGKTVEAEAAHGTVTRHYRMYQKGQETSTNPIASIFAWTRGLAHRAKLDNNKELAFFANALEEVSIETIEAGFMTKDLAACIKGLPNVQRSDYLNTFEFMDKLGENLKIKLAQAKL

The compounds below were run against Isocitrate dehydrogenase [NADP] cytoplasmic (Homo sapiens) (UniProt O75874) (assay: qHTS for Inhibitors of mutant isocitrate dehydrogenase 1 (IDH1): qHTS). Conditions: IDH1-R132H enzyme, NADPH consumption, diaphorase/resazurin fluorescence; at 76.6 µM (top of the series).
From the text: Unbiased genomic sequencing for 22 glioma genomes found recurrent mutation of isocitrate dehydrogenase 1 (IDH1) on chromosome 2q33-a gene encoding the cytosolic isoform of IIDH1associated with the tricarboxylic acid cycle (TCA) that catalyzes the oxidative decarboxylation of isocitrate, yielding alpha-ketoglutarate and CO2 via NADP+ to NADPH conversion. Subsequent studies confirmed the recurrent IDH mutations in up to 70% of secondary gliomas and in 10% of AML cases. […] This in effect defines IDH1 as an oncogene, and provides an extraordinary opportunity to discover chemical probes against mutant IDH1 that may translate into much needed new therapies for glioma and AML patients. […] NIH Chemical Genomics Center [NCGC] NIH Molecular Libraries Probe Centers Network [MLPCN] […]
IDH1-R132H (0.5 ug/mL) was dispensed into black, solid-bottom 1536-well plates at 3 uL/well in 20 mM Tris-HCl (pH 7.5), 150 mM NaCl, 10 mM MgCl2, 4 mM beta-ME, and 0.05% protease-free BSA. […] A pre-read was run on the Viewlux to identify fluorescent compounds (540 nm excitation filter, 598 nm emission filter, bodipy mirror and 2 second exposure). […] The plates were measured on an Envision plate reader for fluorescence signal using a 540 nm excitation filter and 590 nm emission filter with 10 flashes. […] Concentration-response curves were fitted to the signals arising from the resulting fluorescence. […]
% is set by controls: 0 for no effect and ±100 for the full control effect.
Note: nearly all actives have a fitted effect of over 65% in size.

Row | SMILES | activity change, negative = inhibition
1 | C[C@H]1OP(=O)(Oc2ccccc2)[C@H](O)[C@H](O)[C@H]1N=[N+]=[N-] (stereo partly specified) | inactive: -11.2%
